Binding of CDR-mutated scFvs to a peptide of the spike HR2 region

Values reported by Li et al. 2023, doi:10.1038/s41467-023-39022-2 (FLAb copy).

Target peptide (SARS-CoV-2 spike, HR2 region): PDVDLGDISGINAS

The variants keep the light chain, the linker and the frameworks of Ab-14 (scFv order VH, a (GGGGS)3 linker, VL).
VH: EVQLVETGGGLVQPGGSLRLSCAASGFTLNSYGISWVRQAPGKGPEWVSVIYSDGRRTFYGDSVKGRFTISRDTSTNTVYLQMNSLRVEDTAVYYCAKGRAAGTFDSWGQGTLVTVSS
VL: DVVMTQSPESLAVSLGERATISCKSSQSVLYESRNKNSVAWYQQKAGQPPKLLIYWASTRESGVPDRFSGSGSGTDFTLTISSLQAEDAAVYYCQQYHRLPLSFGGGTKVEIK

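Phage display of a naive human antibody library on the peptide gave the parent. This is the validation round: designs drawn from the data on random variants, tested in the same kind of assay. Group labels follow the data file (Ctrl: baseline library sampled from a position-specific scoring matrix, with some repeated check sequences; Rand: our label for a block that the file lists under HC and that is probably the random mutants of the ten best first-round binders; GP: Gaussian process model; GPLM: also part of the Gaussian process libraries; HC: hill climbing; Gen: genetic algorithm; Gibbs: Gibbs sampling; a sequence that several methods proposed may carry one label only). AlphaSeq pools MATa yeast showing the antibodies with MATalpha yeast showing the peptide. Mating (16 h, 30 °C) was followed by selection of diploids and sequencing of their barcodes. The ratio of observed to expected reads was calibrated, replicate by replicate, on BCL2-family standards whose Kd was known from biolayer interferometry. There are six technical replicates.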

The parent's heavy chain CDRs are GFTLNSYGIS, VIYSDGRRTFYGDSVK, GRAAGTFDS; each variant's own CDRs replace them letter for letter. This list holds designs with at most six substitutions. Scale: log10 of Kd in nM, estimated from mating counts; low values are strong binders. A pair that was not seen in that replicate is written "nd"; this usually means weak binding, but a binder can also be missed. The authors' rule: three or more of the six replicates give a measured affinity, fewer mean a poor binder. Nonspecific signal, from three strains lacking the peptide, appeared in 1% of pairings of all heavy chain designs, centred on 2.08 (5% of these signals below 0.84); values are not corrected for it. The control count says in how many pairings with the empty strains this scFv gave a signal. The parent sequence was in this pool as ten entries: three were never detected, three once, and four in most replicates, with averages from 0.34 to 2.37. The range of this assay differs from that of the first round, and the authors advise against merging the two.

The variant GFHLNSYGIS | VIYSDGRRTFYADSVK | GVAAGTFDS [GPLM_Gen] gave 0.70, 0.32, 0.23, 1.11, 0.83, 0.63 (controls 1 of 18). With GFTLDSYGIS | VIYSDGQRTFYGDDVK | GRAADTFDS [Ctrl] the result was nd, nd, nd, nd, nd, nd (controls 0 of 18). For GFTLDSYGIS | VIYSDGQRTFYGDSVK | GRAAGTALS [Rand], the assay gave nd, nd, nd, nd, nd, nd (controls 0 of 18). For GFTLNSYGIS | VIYADGRRTWIGDSVD | GRQAGTFDS [Ctrl], the assay gave nd, nd, nd, nd, nd, nd (controls 0 of 18). With GFTLNSYGIS | VIYSDYRRTFMGDSVK | LRATKTFDS [Ctrl] the result was nd, nd, nd, nd, nd, nd (controls 0 of 18). The variant GFGLNEYGIS | VIYSDGRRTFYGDAVK | GRTAGTFDT [GP_Gibbs] gave nd, 0.17, nd, nd, 1.23, -0.28 (controls 0 of 18). The variant GFTLNDYGIS | VIYSDGRRTFYGDSVK | GRNAGTFIS [GPLM_HC] showed nd, nd, nd, nd, nd, nd (controls 0 of 18). The variant GFTLESYGIS | VIYSDGRRTFYDDSVK | GRAAGTFDS [GPLM_Gen] showed 0.94, 0.40, 0.92, 2.04, nd, nd (controls 0 of 18). The variant NFTLESYGIS | VIYADGRRTFYGDSVK | GRAAGTFDS [GP_HC] gave 1.63, 1.57, 1.45, 2.07, 1.40, 1.62 (controls 1 of 18).

The variant GFSLNSYGIS | VIYSDGRRTFYRDAVK | GKTAGTFDS [GP_Gibbs] showed nd, 1.16, 1.33, 1.55, 2.72, 1.25 (controls 0 of 18). For GFTLNEFGIS | VIYSDGRRTFYTDSVK | GRQAGTFDS [GP_HC], the assay gave 0.80, 0.81, 1.02, 0.36, 0.92, 0.61 (controls 0 of 18). The variant GFVLNEYGIS | VIYSDGRRTFYDDSVK | GRAAGTFDS [GP_HC] gave 1.54, 4.39, 1.38, 0.68, 1.15, 0.91 (controls 1 of 18). The variant GLTLNSYGIS | VIYADGRRTFYNDSVR | GRAAGTFDS [Ctrl] gave 1.95, 1.78, 1.69, 1.33, 1.64, 2.03 (controls 1 of 18). For GFTLNDYGIS | VIYSDGRRTSYGDSVK | GRAAGTFDS [Ctrl], the assay gave nd, 0.96, 0.66, 0.76, 0.14, 0.57 (controls 0 of 18). The variant GFTLNSYGIS | VIYSDGRRTFYGDSFK | GRAAGTFML [Ctrl] showed nd, nd, nd, nd, nd, nd (controls 0 of 18). The variant GFTLNSYGIS | VIYADGRRTFYGDSVK | RRTAGTFDA [Ctrl] showed nd, nd, nd, nd, nd, nd (controls 0 of 18). For GFTLNEYGIS | VIYSDGRRTFYGDSVK | GRAAGTFWV [GP_HC], the assay gave nd, nd, nd, nd, nd, nd (controls 0 of 18). For GFDLNDYGIS | VIYSDGRRTFYGDSVK | GRTAGTFDS [GPLM_Gen], the assay gave -0.11, 0.04, -0.15, -0.43, -0.24, -0.20 (controls 1 of 18).

With GFTLESYGIS | VIYSDGRRTFYGDSVK | GRQAGTFDS [GP_Gen] the result was 1.52, 2.79, nd, 2.33, nd, 2.23 (controls 0 of 18). The variant GFKLNEYGIS | VIYSDGRRTFYGDSVK | GRTAGTFDS [GPLM_Gen] gave 0.52, 0.64, 0.42, 0.69, 0.49, 0.90 (controls 0 of 18). For GFALNEYGIS | VIYSDGRRTFYGDSVK | GRMAGTFDS [GP_Gen], the assay gave -0.21, -0.18, -0.50, 0.01, -0.63, -0.36 (controls 0 of 18). The variant GFSLNEYGIS | VIYSDGRRTFYGDRVK | GQTAGTFDS [GP_Gibbs] showed 0.24, -0.20, -0.05, 0.09, -0.02, 0.32 (controls 2 of 18). With GFNLNMYGIS | VIYSDGRRTFYGDSVK | IRAAGLFDS [Ctrl] the result was nd, nd, nd, nd, nd, nd (controls 0 of 18). For GFTLNSYGIS | VIYSDGCRTFYGDSVK | GRAAGTFDS [Ctrl], the assay gave 1.37, nd, 1.30, nd, 0.77, 1.37 (controls 0 of 18). The variant KFTLNSYGIH | VIYSDGRRTFYHDSVK | CRAAGTFDV [Ctrl] gave nd, nd, nd, nd, nd, nd (controls 0 of 18). The variant GFTLNEYGIS | VIYSDGRRTFYGDSVK | GHAAGTFDN [GP_HC] showed 1.01, 0.44, 0.58, 0.73, 0.40, 0.76 (controls 0 of 18). With GFELNSYGIS | VIYSDGRRTFYGDAVK | GRAEGTFDS [Ctrl] the result was nd, nd, nd, nd, nd, nd (controls 1 of 18).

For GFSLNEYGIS | VIYADGRRTFYGDSVK | GWAAGTFDS [GP_HC], the assay gave -0.44, 0.27, -0.09, 0.51, -0.64, 0.70 (controls 0 of 18). For GFSLNQYGIS | VIYSDGRRTFYIDSVK | GNAAGTFDS [GPLM_Gibbs], the assay gave 0.18, -0.19, 0.21, -0.27, -0.08, -0.03 (controls 1 of 18). For GFELNSYGIS | VIYSDGRRTFYGDSVK | GMTAGTFDS [GP_Gen], the assay gave 0.11, 0.45, 1.42, -0.15, -0.16, 0.78 (controls 0 of 18). For GFTLNSYGIS | VIYADGRRTFYGDSVK | GEAAGTFKK [GP_HC], the assay gave 1.39, 2.60, nd, nd, 2.23, 3.19 (controls 0 of 18). The variant GFDLNEYGIS | VIYSDGRRTFYDDSVK | GQEAGTFDS [GP_HC] gave 0.31, -0.04, -0.29, -0.18, 0.12, 0.33 (controls 0 of 18). For GFDLNSYGIS | VIYSDGRRTCYGDSVK | GRTAGTFDS [GP_Gen], the assay gave 1.15, 0.69, 0.82, 0.82, 0.64, 0.61 (controls 2 of 18). For GFTLDSYGIT | VIYSDNRRTFYGDSVK | GRAAGTALS [Rand], the assay gave nd, nd, nd, nd, nd, nd (controls 0 of 18). For GFSLKEYGIS | VIYSDGRRTFYGDSVK | GRAAVTFDQ [GP_HC], the assay gave nd, nd, nd, nd, nd, nd (controls 0 of 18). The variant GKTLNSYGIS | VIYSDGRRTFYSDSVK | GKEAGTFDT [GP_Gibbs] showed -0.18, -0.69, -0.18, -0.77, -0.73, -0.38 (controls 1 of 18).

With GFFLNEYGIS | VIYSDGRRTFYGDSVK | GQAAGTFDS [GPLM_Gen] the result was 1.79, 2.17, 1.62, 1.89, 1.49, nd (controls 0 of 18). For GNSLNSYGIS | VIYSDGRRTFYKDSVK | GQAAGTFDM [Ctrl], the assay gave 1.70, 1.24, nd, 2.46, nd, nd (controls 0 of 18). With GETLNSYGIS | VIYSDGRRTFYGDSVK | DRAAGTFDS [Ctrl] the result was nd, nd, nd, nd, nd, nd (controls 1 of 18). The variant GFTLNSYGIS | VIYSDGKRTFYGDSVK | GRVAGTFDT [GPLM_Gen] showed nd, nd, nd, nd, nd, 1.93 (controls 0 of 18). The variant GFWLNDYGIS | VIYSDGRRTFYQDSVK | GRQAGTFDS [GP_Gibbs] gave 1.92, 1.42, 0.66, 1.07, 1.69, 1.66 (controls 0 of 18). The variant GFSLNEYGIS | VIYSDGRRTFYADRVK | GRTAGTFDS [GP_Gen] gave -0.02, 0.18, -0.12, -0.22, -0.23, 0.20 (controls 0 of 18). The variant GFTINSYGIS | VIYSDGRRVFYGYSVK | GYAAGTFDS [Ctrl] showed nd, nd, nd, nd, nd, nd (controls 0 of 18). The variant GFTLNSYGIS | VIYSDGMRTFYRDSVK | GRLAGTFDS [Ctrl] gave nd, nd, nd, nd, nd, nd (controls 0 of 18). For GYTLNSYGVS | VIYSDGRRTFYGDSVA | GYHAGTMDS [Ctrl], the assay gave nd, nd, nd, nd, nd, nd (controls 0 of 18).

The variant GFTLNSYGES | VIYSDGRRTFYGDSVK | GRVAGTFDS [Ctrl] showed nd, nd, nd, nd, nd, nd (controls 0 of 18).

The last 7 entries again:

Variant GFTLNSYGIS | VIYSDGKRTFYGDSVK | GRVAGTFDT [GPLM_Gen] gave nd, nd, nd, nd, nd, 1.93 (controls 0 of 18).
Variant GFWLNDYGIS | VIYSDGRRTFYQDSVK | GRQAGTFDS [GP_Gibbs] gave 1.92, 1.42, 0.66, 1.07, 1.69, 1.66 (controls 0 of 18).
Variant GFSLNEYGIS | VIYSDGRRTFYADRVK | GRTAGTFDS [GP_Gen] gave -0.02, 0.18, -0.12, -0.22, -0.23, 0.20 (controls 0 of 18).
Variant GFTINSYGIS | VIYSDGRRVFYGYSVK | GYAAGTFDS [Ctrl] gave nd, nd, nd, nd, nd, nd (controls 0 of 18).
Variant GFTLNSYGIS | VIYSDGMRTFYRDSVK | GRLAGTFDS [Ctrl] gave nd, nd, nd, nd, nd, nd (controls 0 of 18).
Variant GYTLNSYGVS | VIYSDGRRTFYGDSVA | GYHAGTMDS [Ctrl] gave nd, nd, nd, nd, nd, nd (controls 0 of 18).
Variant GFTLNSYGES | VIYSDGRRTFYGDSVK | GRVAGTFDS [Ctrl] gave nd, nd, nd, nd, nd, nd (controls 0 of 18).